The target in the experiment is Aldo-keto reductase family 1 member B1 (Homo sapiens, UniProt P15121).

Regarding `O=C(O)Cc1nn(Cc2nc3cc(C(F)(F)F)ccc3s2)c(=O)c2ccccc12` [ZOPOLRESTAT], half-maximal inhibition (IC50) was put at 2.1 nM.

The record behind these values is ChEMBL document CHEMBL4354803, “Synthesis and biological activity of structurally diverse phthalazine derivatives: A systematic review” (Bioorg Med Chem, 2019).
